Here are results for one substance from patent US9522903B2 (priority 2010, dated 2016).

The assay relates to murine model of acute chlorine inhalation injury (CILI). Conditions: Balb/c mice, 400 ppm Cl2 30 min, 30 mg/kg/dose IP q12h from 15 min after exposure, at 24 h.

“2-cyano-1-(1-hydroxy-2,2,5,5-tetramethylpyrrolidin-3-yl)-3-(pyridin-3-yl)guanidine”: the “reduction of the elevation in lung MPO (PMN infiltration) relative to placebo (D5W)” value (p<0.0001, FIG. 5A) is listed as 52%. Further, for the setting “p<0.001, FIG. 5B”, the “reduction of histologic lung damage relative to placebo (D5W)” value is on record as 43%.
